Test results published in PubChem BioAssay (NCATS).
The list shows a part of the results, in another mix than the full data. Records with an inconclusive call do not appear. Calls of active or inactive are those of the source. Calls come from the whole dose curve; as a rule, active = well fitted curve in the direction sought with a large enough effect; inconclusive = small, poorly fitted or top-dose-only effect, or another doubt; inactive = no such curve, though single readings can be large; an effect the other way counts as inactive or inconclusive.

By UniProt entry, the sequences of proteins in these tests, tags left out. Where a name states a change or a piece, a line headed by the entry shows the natural chain unless it says otherwise.
UniProt A8B2U2: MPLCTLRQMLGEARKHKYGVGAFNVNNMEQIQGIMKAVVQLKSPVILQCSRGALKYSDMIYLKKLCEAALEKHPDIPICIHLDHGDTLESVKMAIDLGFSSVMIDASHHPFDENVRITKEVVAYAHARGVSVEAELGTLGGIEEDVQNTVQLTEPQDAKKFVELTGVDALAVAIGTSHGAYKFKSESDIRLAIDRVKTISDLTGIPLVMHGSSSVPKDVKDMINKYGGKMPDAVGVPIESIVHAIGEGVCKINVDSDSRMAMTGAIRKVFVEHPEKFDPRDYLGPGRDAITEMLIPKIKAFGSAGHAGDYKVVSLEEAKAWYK
UniProt P00883: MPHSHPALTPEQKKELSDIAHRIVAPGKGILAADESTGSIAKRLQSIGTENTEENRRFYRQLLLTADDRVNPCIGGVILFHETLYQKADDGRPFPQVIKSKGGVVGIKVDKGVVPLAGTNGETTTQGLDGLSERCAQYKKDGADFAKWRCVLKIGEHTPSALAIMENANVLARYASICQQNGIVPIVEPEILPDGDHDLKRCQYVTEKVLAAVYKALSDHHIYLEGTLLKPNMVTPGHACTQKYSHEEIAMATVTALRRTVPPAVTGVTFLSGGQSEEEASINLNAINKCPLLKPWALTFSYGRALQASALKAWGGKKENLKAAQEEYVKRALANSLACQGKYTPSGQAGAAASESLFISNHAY

How the values were obtained:
[1] = qHTS Assay for Inhibitors of Fructose-1,6-bisphosphate Aldolase from Giardia Lamblia: Giardia lamblia growth inhibition (AID 2785); details: Giardia lamblia trophozoite growth inhibition; at 38.3 µM (top of the series); note: nearly all actives have a fitted effect of over 70% in size
Procedure, shortened: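 Whole-parasite growth test: Giardia WB trophozoites in TYI-S-33 (pH 7.0), 100 per well, incubated 48 h at 37C with compound. ATP content was read by ATPlite luminescence.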

[2] = qHTS Assay for Inhibitors of Fructose-1,6-bisphosphate Aldolase from Giardia Lamblia: Mammalian cellular toxicity (AID 2786); details: mammalian cell viability counter-screen; at 57.5 µM (top of the series);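 note: compound exposure lasted 48 h before reading; nearly all actives have a fitted effect of over 60% in size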
Procedure, shortened: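 Mammalian cytotoxicity surrogate: Chinese hamster ovary cells exposed to compound for 48 h at 37 °C. Cellular ATP then measured with ATPlite reagent, 20 min incubation.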

[3] = biological target: Fructose-bisphosphate aldolase (Giardia intestinalis (strain ATCC 50803 / WB clone C6)) (UniProt A8B2U2); assay: qHTS Assay for Inhibitors of Fructose-1,6-bisphosphate Aldolase from Giardia Lamblia: Primary screen confirmation (AID 2787); details: purified Giardia aldolase enzyme activity; at 57.5 µM (top of the series);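 note: aldolase product measured through coupled diaphorase step turning resazurin into fluorescent resorufin; nearly all actives have a fitted effect of over 45% in size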
Procedure, shortened: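 FBPA (40 nM in enzyme reagent, with 30 uM ZnCl2) was preincubated 10 min at RT with compound up to 57.5 uM final. Substrate plus coupled detection system was then added, and fluorescence (525/598 nm) was read after 20 min at RT.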

[4] = biological target: Fructose-bisphosphate aldolase A (Oryctolagus cuniculus) (UniProt P00883); assay: qHTS Assay for Inhibitors of Fructose-1,6-bisphosphate Aldolase from Giardia Lamblia: Rabbit FBPA Selectivity (AID 2794); details: Rabbit muscle FBPA enzyme inhibition, selectivity counter-screen; at 57.5 µM (top of the series); note: nearly all actives have a fitted effect of over 60% in size
Procedure, shortened: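 Glyceraldehyde-3-phosphate-coupled detection measures rabbit Class I aldolase turnover via AmpLite Red fluorescence. Compounds (final up to 57.5 uM) preincubated 10 min; signal read 20 min post-substrate at RT.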

[5] = qHTS Assay for Inhibitors of Fructose-1,6-bisphosphate Aldolase from Giardia Lamblia: Coupling assay counterscreen confirmation (AID 2795); details: GAPDH coupling enzyme counterscreen, biochemical; at 57.5 µM (top of the series); note: nearly all actives have a fitted effect of over 55% in size
Procedure, shortened: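 Setup: coupling enzyme reagent, compound pin-transferred to up to 57.5 uM final. Incubation: 10 min RT, then substrate + AmpLite Red for 20 min RT. Detection: fluorescence 525/598 nm.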
% is set by controls: 0 for no effect and ±100 for the full control effect.

CC(C)(C)C(=O)NC(Sc1ncccn1)C(Cl)(Cl)Cl (stereo not given)
inactive: activity change, negative = inhibition [1] -13.3% | viability change, negative = toxicity [2] 3.04% | activity change, negative = inhibition [3] 8.77% | activity, negative = inhibition [4] 8.17% | activity change, negative = inhibition [5] -8.97%
